For 2 molecules, GFP response vs DMSO results are on record in PubChem BioAssay AID2016 (NMMLSC, 2009).

Only a part is listed here, and it is no random draw. Active and inactive are the calls of the source.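 Rule for the calls: active = GFP response versus DMSO above a set limit, roughly screen mean plus 3 SD (cut at about 180% in these data); inconclusive = fewer than 70 cells counted for a yeast strain; inactive = the rest.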

The test can be described thus: TOR pathway GLN3 branch reporter MEP2-GFP changes – S. cerevisiae, multiplex flow cytometry, MLPCN library, primary screen (AID 2016).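 Note: median GFP fluorescence of the barcode-gated MEP2-GFP cells per well.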 To be noted: S. cerevisiae MEP2-GFP strain, 3 h, at 10 µM, stronger effect = higher value, 100% = DMSO control level. A general note: A flow cytometer gives signals particle by particle.
As for `CCC(=O)N(c1ccccc1)C1(COC)CCN(CCn2nnn(CC)c2=O)CC1`, the GFP response vs DMSO was inactive: 96.6%.

With `CCC(=O)N(c1ccccc1)C1(COC)CCN(CCc2cccs2)CC1`, the GFP response vs DMSO is inactive: 102%.
